One assay addresses T1, human GLP-1 receptor (Homo sapiens, UniProt P43220).
T1 construct: expressed in transfected cells; host or cells: HEK-293
The experiment in a line: cAMP response (HTRF) of HEK-293 cells stably expressing human GLP-1 receptor. It is filed as cell-based. The note with it: read-out: EC50 hGLP-1R. For orientation: Time-resolved FRET reads energy transfer from a long-lived donor to a nearby acceptor.

Sequences of proteins named here, by UniProt entry; tags and fusion partners are left off. Residues count along the entry.
UniProt P43220, 24-463: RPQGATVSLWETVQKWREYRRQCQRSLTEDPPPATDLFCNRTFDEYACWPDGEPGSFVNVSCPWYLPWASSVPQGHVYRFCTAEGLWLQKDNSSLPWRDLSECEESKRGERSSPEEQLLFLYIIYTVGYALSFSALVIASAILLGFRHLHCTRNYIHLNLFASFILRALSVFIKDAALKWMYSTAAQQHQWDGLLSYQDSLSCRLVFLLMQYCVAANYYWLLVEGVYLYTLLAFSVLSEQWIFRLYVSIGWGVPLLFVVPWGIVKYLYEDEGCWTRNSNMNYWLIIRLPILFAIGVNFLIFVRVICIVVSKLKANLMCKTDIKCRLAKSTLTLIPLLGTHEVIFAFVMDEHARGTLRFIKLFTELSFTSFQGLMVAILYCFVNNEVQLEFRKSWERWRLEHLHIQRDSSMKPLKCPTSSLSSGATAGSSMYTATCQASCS
UniProt P47871, 26-477: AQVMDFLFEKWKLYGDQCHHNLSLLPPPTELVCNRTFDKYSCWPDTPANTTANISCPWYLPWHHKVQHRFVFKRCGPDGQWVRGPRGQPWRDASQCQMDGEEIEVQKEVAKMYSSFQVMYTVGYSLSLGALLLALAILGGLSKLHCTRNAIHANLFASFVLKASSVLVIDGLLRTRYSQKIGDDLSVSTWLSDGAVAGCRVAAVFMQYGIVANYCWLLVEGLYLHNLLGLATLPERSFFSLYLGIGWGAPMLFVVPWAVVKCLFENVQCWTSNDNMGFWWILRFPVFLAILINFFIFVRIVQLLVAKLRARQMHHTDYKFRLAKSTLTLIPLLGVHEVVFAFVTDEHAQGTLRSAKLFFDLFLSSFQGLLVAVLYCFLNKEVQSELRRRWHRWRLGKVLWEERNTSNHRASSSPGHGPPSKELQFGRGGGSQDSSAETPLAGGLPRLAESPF

A further assay addresses T2, human glucagon receptor (Homo sapiens, UniProt P47871).
T2 construct: expressed in transfected cells; host or cells: HEK-293
Put plainly: cAMP response (HTRF) of HEK-293 cells stably expressing human glucagon receptor. It is filed as cell-based. The note with it: read-out: EC50 hGlucagon-R.

The mark [1] stands for this setting: Table 8, comparison testing of position 14.

Among the data in patent publication US20140100156A1 (SANOFI, priority 2012, published 2014) are EC50 values, retold here.

Molecules are shown by their SMILES. Like-named read-outs stand apart in the source and are kept apart here.

The EC50 is the concentration giving half of the maximal effect. As to `CCCCCCCCCCCCCCCC(=O)N[C@@H](CCC(=O)NCCCC[C@H](NC(=O)[C@H](CCC(N)=O)NC(=O)[C@H](CCCCN)NC(=O)[C@H](CO)NC(=O)[C@H](CC(C)C)NC(=O)[C@H](CC(=O)O)NC(=O)[C@H](CO)NC(=O)[C@@H](NC(=O)[C@H](Cc1ccccc1)NC(=O)[C@@H](NC(=O)CNC(=O)[C@H](CCC(N)=O)NC(=O)[C@@H](CO)NC(=O)[C@@H](N)Cc1c[nH]cn1)[C@@H](C)O)[C@@H](C)O)C(=O)N[C@@H](CCC(=O)O)C(=O)N[C@@H](CO)C(=O)N[C@@H](CCCNC(=N)N)C(=O)N[C@@H](CCCNC(=N)N)C(=O)N[C@@H](C)C(=O)N[C@@H](CCC(N)=O)C(=O)N[C@@H](CC(=O)O)C(=O)N[C@@H](Cc1ccccc1)C(=O)N[C@H](C(=O)N[C@@H](CCC(=O)O)C(=O)N[C@@H](Cc1c[nH]c2ccccc12)C(=O)N[C@@H](CC(C)C)C(=O)N[C@@H](CCCCN)C(=O)N[C@@H](CC(N)=O)C(=O)NCC(=O)NCC(=O)N1CCC[C@H]1C(=O)N[C@@H](CO)C(=O)N[C@@H](CO)C(=O)NCC(=O)N[C@@H](C)C(=O)N1CCC[C@H]1C(=O)N1CCC[C@H]1C(=O)N1CCC[C@H]1C(=O)N[C@@H](CCCCN)C(N)=O)[C@@H](C)CC)C(=O)O` [compound 113], the EC50 at human GLP-1 receptor (Table 5, cAMP, HEK-293) turned out to be 11.4 pM; at human glucagon receptor (Table 5, cAMP, HEK-293), 5.4 pM.

In the case of `CCCCCCCCCCCCCCCC(=O)N[C@@H](CCC(=O)NCCCC[C@H](NC(=O)[C@H](CCC(N)=O)NC(=O)[C@H](CCCCN)NC(=O)[C@H](CO)NC(=O)[C@H](CC(C)C)NC(=O)[C@H](CC(=O)O)NC(=O)[C@H](CO)NC(=O)[C@@H](NC(=O)[C@H](Cc1ccccc1)NC(=O)[C@@H](NC(=O)CNC(=O)[C@H](CCC(N)=O)NC(=O)[C@@H](CO)NC(=O)[C@@H](N)Cc1c[nH]cn1)[C@@H](C)O)[C@@H](C)O)C(=O)N[C@@H](CC(=O)O)C(=O)N[C@@H](CO)C(=O)N[C@@H](CCCCN)C(=O)N[C@@H](C)C(=O)N[C@@H](C)C(=O)N[C@@H](CCC(N)=O)C(=O)N[C@@H](CC(=O)O)C(=O)N[C@@H](Cc1ccccc1)C(=O)N[C@H](C(=O)N[C@@H](CCC(=O)O)C(=O)N[C@@H](Cc1c[nH]c2ccccc12)C(=O)N[C@@H](CC(C)C)C(=O)N[C@@H](CCCCN)C(=O)N[C@@H](CO)C(=O)NCC(=O)NCC(=O)N1CCC[C@H]1C(=O)N[C@@H](CO)C(=O)N[C@@H](CO)C(=O)NCC(=O)N[C@@H](C)C(=O)N1CCC[C@H]1C(=O)N1CCC[C@H]1C(=O)N1CCC[C@H]1C(=O)N[C@@H](CO)C(N)=O)[C@@H](C)CC)C(=O)O` [compound 173], the EC50 at human GLP-1 receptor (Table 5, cAMP, HEK-293) worked out at 5.7 pM; on human glucagon receptor (Table 5, cAMP, HEK-293) it was 5.9 pM.

Turning to `CCCCCCCCCCCCCCCC(=O)N[C@@H](CCC(=O)NCCCC[C@H](NC(=O)[C@H](CCC(N)=O)NC(=O)[C@H](CCCCN)NC(=O)[C@H](CO)NC(=O)[C@H](CC(C)C)NC(=O)[C@H](CC(=O)O)NC(=O)[C@H](CO)NC(=O)[C@@H](NC(=O)[C@H](Cc1ccccc1)NC(=O)[C@@H](NC(=O)CNC(=O)[C@H](CCC(N)=O)NC(=O)[C@@H](CO)NC(=O)[C@@H](N)Cc1c[nH]cn1)[C@@H](C)O)[C@@H](C)O)C(=O)N[C@@H](CCC(=O)O)C(=O)N[C@@H](CO)C(=O)N[C@@H](CCCNC(=N)N)C(=O)N[C@@H](C)C(=O)N[C@@H](C)C(=O)N[C@@H](CCC(N)=O)C(=O)N[C@@H](CCC(=O)O)C(=O)N[C@@H](Cc1ccccc1)C(=O)N[C@H](C(=O)N[C@@H](CCC(=O)O)C(=O)N[C@@H](Cc1c[nH]c2ccccc12)C(=O)N[C@@H](CC(C)C)C(=O)N[C@@H](CCCCN)C(=O)N[C@@H](C)C(=O)NCC(=O)NCC(=O)N1CCC[C@H]1C(=O)N[C@@H](CO)C(=O)N[C@@H](CO)C(=O)NCC(=O)N[C@@H](C)C(=O)N1CCC[C@H]1C(=O)N1CCC[C@H]1C(=O)N1CCC[C@H]1C(=O)N[C@@H](CO)C(N)=O)[C@@H](C)CC)C(=O)O` [compound 47], the EC50 on human GLP-1 receptor (Table 5, cAMP, HEK-293) was found to be 2.2 pM; on human glucagon receptor (Table 5, cAMP, HEK-293), 10.3 pM.

As for `CCCCCCCCCCCCCCCC(=O)N[C@@H](CCC(=O)N[C@@H](CCC(=O)NCCCC[C@H](NC(=O)[C@H](CCC(N)=O)NC(=O)[C@H](CCCCN)NC(=O)[C@H](CO)NC(=O)[C@H](CC(C)C)NC(=O)[C@H](CC(=O)O)NC(=O)[C@H](CO)NC(=O)[C@@H](NC(=O)[C@H](Cc1ccccc1)NC(=O)[C@@H](NC(=O)CNC(=O)[C@H](Cc1c[nH]cn1)NC(=O)C(C)(C)NC(=O)[C@@H](N)Cc1c[nH]cn1)[C@@H](C)O)[C@@H](C)O)C(=O)N[C@@H](CC(=O)O)C(=O)N[C@@H](CCC(=O)O)C(=O)N[C@@H](CCC(=O)O)C(=O)N[C@@H](C)C(=O)N[C@@H](C)C(=O)N[C@@H](CCCNC(=N)N)C(=O)N[C@@H](CC(C)C)C(=O)N[C@@H](Cc1ccccc1)C(=O)N[C@H](C(=O)N[C@@H](CCC(=O)O)C(=O)N[C@@H](Cc1c[nH]c2ccccc12)C(=O)N[C@@H](CC(C)C)C(=O)N[C@@H](CCCCN)C(=O)N[C@@H](C)C(=O)NCC(=O)NCC(=O)N1CCC[C@H]1C(=O)N[C@@H](CO)C(=O)N[C@@H](CO)C(=O)NCC(=O)N[C@@H](C)C(=O)N1CCC[C@H]1C(=O)N1CCC[C@H]1C(=O)N1CCC[C@H]1C(=O)N[C@@H](CO)C(N)=O)[C@@H](C)CC)C(=O)O)C(=O)O` [compound 227], the concentration giving a half-maximal response (EC50) stood at 1.4 pM on human GLP-1 receptor (Table 5, cAMP, HEK-293) and 1.1 pM at human glucagon receptor (Table 5, cAMP, HEK-293).

As for `CC[C@H](C)[C@H](NC(=O)[C@H](Cc1ccccc1)NC(=O)[C@H](CC(=O)O)NC(=O)[C@H](CCC(N)=O)NC(=O)[C@H](C)NC(=O)[C@H](C)NC(=O)[C@H](CCCCN)NC(=O)[C@H](CO)NC(=O)[C@H](CCC(=O)O)NC(=O)[C@H](CCSC)NC(=O)[C@H](CCC(N)=O)NC(=O)[C@H](CCCCN)NC(=O)[C@H](CO)NC(=O)[C@H](CC(C)C)NC(=O)[C@H](CC(=O)O)NC(=O)[C@H](CO)NC(=O)[C@@H](NC(=O)[C@H](Cc1ccccc1)NC(=O)[C@@H](NC(=O)CNC(=O)[C@H](CCC(N)=O)NC(=O)[C@@H](CO)NC(=O)[C@@H](N)Cc1c[nH]cn1)[C@@H](C)O)[C@@H](C)O)C(=O)N[C@@H](CCC(=O)O)C(=O)N[C@@H](Cc1c[nH]c2ccccc12)C(=O)N[C@@H](CC(C)C)C(=O)N[C@@H](CCCCN)C(=O)N[C@@H](C)C(=O)NCC(=O)NCC(=O)N1CCC[C@H]1C(=O)N[C@@H](CO)C(=O)N[C@@H](CO)C(=O)NCC(=O)N[C@@H](C)C(=O)N1CCC[C@H]1C(=O)N1CCC[C@H]1C(=O)N1CCC[C@H]1C(=O)N[C@@H](CO)C(N)=O` [compound 189], the 50% effective concentration (EC50) was determined as 5.6 pM on human GLP-1 receptor (setting [1]) and 1680 pM on human glucagon receptor (setting [1]).

In the case of `CCCCCCCCCCCCCCCC(=O)N[C@@H](CCC(=O)N[C@@H](CCC(=O)NCCCC[C@H](NC(=O)[C@H](CCC(N)=O)NC(=O)[C@H](CCCCN)NC(=O)[C@H](CO)NC(=O)[C@H](CC(C)C)NC(=O)[C@H](CC(=O)O)NC(=O)[C@H](CO)NC(=O)[C@@H](NC(=O)[C@H](Cc1ccccc1)NC(=O)[C@@H](NC(=O)CNC(=O)[C@H](CCC(N)=O)NC(=O)C(C)(C)NC(=O)[C@@H](N)Cc1c[nH]cn1)[C@@H](C)O)[C@@H](C)O)C(=O)N[C@@H](CC(=O)O)C(=O)N[C@@H](CCC(=O)O)C(=O)N[C@@H](CCC(=O)O)C(=O)N[C@@H](C)C(=O)N[C@@H](C)C(=O)N[C@@H](CCCNC(=N)N)C(=O)N[C@@H](CC(C)C)C(=O)N[C@@H](Cc1ccccc1)C(=O)N[C@H](C(=O)N[C@@H](CCC(=O)O)C(=O)N[C@@H](Cc1c[nH]c2ccccc12)C(=O)N[C@@H](CC(C)C)C(=O)N[C@@H](CCCCN)C(=O)N[C@@H](C)C(=O)NCC(=O)NCC(=O)N1CCC[C@H]1C(=O)N[C@@H](CO)C(=O)N[C@@H](CO)C(=O)NCC(=O)N[C@@H](C)C(=O)N1CCC[C@H]1C(=O)N1CCC[C@H]1C(=O)N1CCC[C@H]1C(=O)N[C@@H](CO)C(N)=O)[C@@H](C)CC)C(=O)O)C(=O)O` [compound 226], the 50% effective concentration (EC50) at human GLP-1 receptor (Table 5, cAMP, HEK-293) was 1.4 pM; at human glucagon receptor (Table 5, cAMP, HEK-293), 19.1 pM.
